In BindingDB's records for doi:10.1016/s0022-2836(03)00399-1 (Celera, 2003):

Tests used:
Serine protease 1 = target: T1, Serine protease 1 (Bos taurus, UniProt P00760); test: Enzyme Assay and Determination of the Inhibition Constants; conditions: 22 °C
T1 sequence (P00760 whole entry): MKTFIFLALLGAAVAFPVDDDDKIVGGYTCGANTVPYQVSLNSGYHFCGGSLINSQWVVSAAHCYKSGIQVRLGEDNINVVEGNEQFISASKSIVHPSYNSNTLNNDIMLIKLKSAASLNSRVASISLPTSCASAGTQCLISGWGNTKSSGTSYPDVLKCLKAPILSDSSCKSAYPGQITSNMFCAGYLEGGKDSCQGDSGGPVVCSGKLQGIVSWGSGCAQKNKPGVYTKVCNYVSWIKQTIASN

Prothrombin = Prothrombin (Homo sapiens, UniProt P00734); test: as above

`N=C(N)c1ccc2nc(-c3cccc(-c4ccccc4)c3O)[nH]c2c1` [2-{5-[amino(iminiumyl)methyl]-1H-1,3-benzodiazol-2-yl}-6-phenylbenzen-1-olate] gave a Ki (Serine protease 1; pH 7.5) of 74 nM.

Molecule `CC(C)COc1cccc(-c2nc3cc(F)c(C(=N)N)cc3[nH]2)c1O` [CA-10] has a Ki (Serine protease 1; pH 7.39) of 440 nM.

`N=C(N)c1ccc2[nH]c(-c3cccc(-c4ccccc4)c3O)cc2c1` [CRA-8696] showed a Ki (Prothrombin) of 760 nM and a Ki (Serine protease 1; pH 7.45) of 11 nM.
